In PubChem BioAssay AID588590 (National Center for Advancing Translational Sciences (NCATS), 2011):
Only a part is listed here, and it is no random draw. Records with an inconclusive call do not appear. Calls of active or inactive are those of the source. Calls come from the whole dose curve; as a rule, active = well fitted inhibition curve with a large enough effect; inconclusive = small, poorly fitted or top-dose-only effect, or another doubt; inactive = no such curve, though single readings can be large or run the other way.

Protein sequences, listed by entry. Tags and fused reporters are not part of them.
UniProt Q9UNA4, whole entry: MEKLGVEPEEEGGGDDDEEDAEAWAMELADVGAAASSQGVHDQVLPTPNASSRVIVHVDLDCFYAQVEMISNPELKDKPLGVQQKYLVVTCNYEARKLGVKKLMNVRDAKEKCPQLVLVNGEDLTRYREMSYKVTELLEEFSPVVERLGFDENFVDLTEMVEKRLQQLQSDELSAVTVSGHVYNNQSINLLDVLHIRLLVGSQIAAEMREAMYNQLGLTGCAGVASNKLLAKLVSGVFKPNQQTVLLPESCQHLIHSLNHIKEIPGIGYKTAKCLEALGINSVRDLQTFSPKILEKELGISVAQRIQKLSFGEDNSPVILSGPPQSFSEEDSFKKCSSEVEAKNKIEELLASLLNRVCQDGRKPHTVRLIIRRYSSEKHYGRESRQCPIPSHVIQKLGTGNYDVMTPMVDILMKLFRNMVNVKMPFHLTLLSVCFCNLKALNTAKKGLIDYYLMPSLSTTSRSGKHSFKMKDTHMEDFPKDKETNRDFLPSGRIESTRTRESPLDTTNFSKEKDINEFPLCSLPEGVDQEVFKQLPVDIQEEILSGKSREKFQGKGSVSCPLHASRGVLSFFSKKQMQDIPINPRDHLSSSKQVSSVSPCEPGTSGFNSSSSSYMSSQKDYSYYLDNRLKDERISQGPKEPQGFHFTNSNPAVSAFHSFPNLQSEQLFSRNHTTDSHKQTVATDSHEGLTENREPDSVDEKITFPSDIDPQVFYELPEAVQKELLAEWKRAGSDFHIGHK

Molecular target: DNA polymerase iota (Homo sapiens) (UniProt Q9UNA4)
Assay: qHTS for Inhibitors of Polymerase Iota
Settings: Pol iota fluorescent replication assay, 10 min; at 115 µM (top of the series)

SMILES	activity, negative = inhibition
Cc1cc(N(CCCl)CCCl)ccc1C=O	inactive: 25.2%
O=C(NCC1(N2CCOCC2)CCCCC1)c1ccccc1	inactive: -19.1%
CCCN1CCC(Nc2cc(OC)cc(OC)c2)CC1	inactive: 99.1%
c1ccc(CN2CCC(Nc3ccccc3)CC2)cc1	inactive: 12.1%
CN(C)C1(CNC(=O)c2cccc(C#N)c2)CCCCC1	inactive: 152%
O=C(NCC1(N2CCOCC2)CCCCC1)c1ccc([N+](=O)[O-])cc1	inactive: 7.5%
CC(C)(C)OC(=O)N1CCC(N(C(=O)c2ccccc2)c2ccc(Cl)cc2)CC1	inactive: 18.4%
N#Cc1ccc(C(=O)NCC2(N3CCCCC3)CCCCC2)cc1	inactive: 58.1%
O=C(NCC1(N2CCOCC2)CCCCC1)c1ccccc1[N+](=O)[O-]	inactive: 0.343%
CCOC(=O)C(CC)C1=NC(C)(C)Cc2ccccc21.O=[N+]([O-])c1cc([N+](=O)[O-])c(O)c([N+](=O)[O-])c1 (stereo not drawn)	inactive: 14.1%
N/C(=N\O)c1c(N)no[n+]1[O-]	inactive: 5.28%
CCOC(=O)N1CCC(Nc2ccc(C)cc2)CC1	inactive: 83.9%
O=C(O)c1cccc(Nc2c([N+](=O)[O-])cc([N+](=O)[O-])cc2[N+](=O)[O-])c1	inactive: -8.8%
O=C(OC1CN2CCC1CC2)C1c2ccccc2C=Cc2ccccc21 (stereo not drawn)	inactive: -5.74%
CCc1cc(C(=O)NCC2(N3CCCCC3)CCCCC2)sc1C	inactive: 37.5%
O=C(NCC1(N2CCOCC2)CCCCC1)c1cc(Br)ccc1Cl	inactive: 23.2%
COc1cc(C(=O)NCC2(N3CCOCC3)CCCCC2)cc(OC)c1C	inactive: -7.01%
COc1ccc(C(=O)NCC2(N3CCOCC3)CCCCC2)cc1OC	inactive: -0.526%
O=Cc1ccc(N(CCCl)CCCl)cc1	inactive: 34%
CCC(CO)(C(=O)OC1CN2CCC1CC2)c1ccccc1 (stereo not drawn)	inactive: 6.99%
COc1cc(OC)cc(C(=O)NCC2(N3CCOCC3)CCCCC2)c1	inactive: 102%
COc1cc(C(=O)NCC2(N3CCOCC3)CCCCC2)cc(OC)c1OC	inactive: 19.9%
COc1cccc(C(=O)N(c2cc(C)cc(C)c2)C2CCN(C(=O)OC(C)(C)C)CC2)c1	inactive: 50.3%
CN1CCC(Nc2ccc(Cl)cc2)CC1	inactive: 9.53%
CCOc1ncccc1C(=O)NCC1(N2CCOCC2)CCCCC1	inactive: 9.36%
CCCOc1ccc(C(=O)NCC2(N(C)C)CCCCC2)cc1	inactive: 32.6%
ClCCN(CCCl)c1ccccc1	inactive: 8.8%
O=C(O)C1(Nc2ccccc2)CCN(Cc2ccccc2)CC1	inactive: 15.6%
